Data taken from PubChem BioAssay AID1021 (Emory University Molecular Libraries Screening Center, 2008).
Only a part is listed here, and it is no random draw. Some results for these compounds are left out of this collection, so the calls shown say nothing about other tests. Calls of active or inactive are those of the source.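 How the source made its calls: active means compounds that cut the binding signal by more than half at the single screening dose; inactive means the rest.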

By UniProt entry, the sequences of proteins in these tests, tags left out.
UniProt Q07820, whole entry: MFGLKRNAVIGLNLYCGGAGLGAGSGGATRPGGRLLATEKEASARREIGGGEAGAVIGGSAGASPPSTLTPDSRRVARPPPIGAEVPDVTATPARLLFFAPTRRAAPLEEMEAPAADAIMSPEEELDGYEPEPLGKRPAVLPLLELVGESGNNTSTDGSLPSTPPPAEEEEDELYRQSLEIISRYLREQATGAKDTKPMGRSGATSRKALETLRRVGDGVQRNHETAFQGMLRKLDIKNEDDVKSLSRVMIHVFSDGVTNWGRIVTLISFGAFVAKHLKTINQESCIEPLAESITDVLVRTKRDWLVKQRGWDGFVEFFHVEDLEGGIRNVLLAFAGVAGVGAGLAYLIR

Molecular target: Induced myeloid leukemia cell differentiation protein Mcl-1 (Homo sapiens) (UniProt Q07820)
Assay: Mcl-1/Bid binding inhibitors, primary screen, biochemical, TR-FRET, 1536-well (AID 1021);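 further: His-tagged Mcl-1 with europium anti-His antibody binding Bid BH3 peptide; 0% = Mcl-1 plus peptide wells and 100% = peptide-only wells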
Conditions: TR-FRET Mcl-1/Bid-Dy647 peptide binding, at 21.7 µM, hits give high values

Structure (SMILES) | inhibition
O=C(NCC1(N2CCCCC2)CCCCC1)c1cc([N+](=O)[O-])ccc1Cl | inactive: -59.5%
CC(C)N1C(=O)CC2(CCN(CCOC(=O)C(O)(c3ccccc3)c3ccccc3)CC2)C1=O | inactive: -1.96%
CCN(CC)CC(C)C(C)OC(=O)C(O)(c1ccccc1)c1ccccc1 (stereo unspecified) | inactive: -24.1%
CN(C)C1CCCC1OC(=O)C(O)(c1ccccc1)c1ccccc1 (stereo unspecified) | inactive: 5.22%
Cc1ccccc1C(=O)NCC1(N2CCCCC2)CCCCC1 | inactive: -20.6%
C=CCN1CCN(CCOC(=O)C(O)(c2ccccc2)c2ccccc2)CC1 | inactive: 0.44%
CCN1CCCC(OC(=O)C2(O)c3ccccc3C=Cc3ccccc32)C1 (stereo unspecified) | inactive: -8.4%
COc1cccc(C(=O)NCC2(N3CCCCC3)CCCCC2)c1 | inactive: -22.5%
O=C(OC1CN2CCC1CC2)C(CO)(c1ccccc1)c1ccccc1 (stereo unspecified) | inactive: -5.73%
COc1ccc(Br)c(C(=O)NCC2(N3CCCCC3)CCCCC2)c1 | inactive: -2.7%
CN(C)c1cccc(C(=O)NCC2(N(C)C)CCCCC2)c1 | inactive: -31.3%
